Patent US20220144838A1, “Compounds as Inhibitors of Macrophage Migration Inhibitory Factor” (NANJING IMMUNOPHAGE BIOTECH CO., LTD., priority 2019, published 2022)

The chains behind the UniProt entries cited, without tags or fusion partners. Residues count along the entry.
UniProt P14174, 2-115 limits assumed: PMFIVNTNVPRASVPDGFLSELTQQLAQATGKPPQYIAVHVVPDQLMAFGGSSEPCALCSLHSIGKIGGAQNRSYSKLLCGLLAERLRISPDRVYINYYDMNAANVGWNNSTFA

Target: MIF (Homo sapiens, UniProt P14174)
Assay: MIF tautomerase assay using pHPP as substrate
Settings: inhibition of the MIF enzyme in vitro; mean of multiple test results
Method: Tautomerase Assay Using pHPP as Substrate
This assay measured MIF's tautomerase activity in a cell-free system and was based on the determination of initial rates of the MIF-catalyzed conversion of the ketonic into the enolic tautomer of pHPP. This was achieved by spectrophotometric quantification of the complex between borate and the product of the reaction (enolic pHPP). The substrate was prepared by conversion of the enolic pHPP into its ketonic form. To achieve this, 0.5 M pHPP in methanol was diluted 10-fold with 50 mM sodium acetate buffer at pH 6.0, and then the suspension was shaken for 24 h at room temperature in darkness, and finally stored at 4° C. for not more than 1 week, with 5 min sonication being recommended before use.
Assays were performed in small-volume clear-bottom black 96 or 384-well polystyrene plates (Greiner Bio-One). First, 2 μL of the enzyme solution containing 6 nM of MIF in DPBS, 0.025% w/v BSA, and 300 μM CHAPS was dispensed onto sample and negative control wells using Multidrop Combi with metallic tip cassettes (Thermo Fisher Scientific) previously treated with Sigmacote. Then, 2 μL of the same buffer without MIF was dispensed onto positive control wells. […] Then, the plate was read in an EnVision. […] Initial rates were calculated for each well as the slope of the absorbance progress curve. […]

Compound: COc1nc(Cl)ccc1-n1cnc2c(N)nc(N3CCN(c4ccc(O)cc4)CC3)nc21
- Tautomerase Inhibition pIC50: B (B means 5.01 to 6)
